# In PubChem BioAssay AID1851 (National Center for Advancing Translational Sciences (NCATS), 2009):
# Protein sequences, listed by entry. Tags and fused reporters are not part of them.
# UniProt P05177, whole entry, looked up: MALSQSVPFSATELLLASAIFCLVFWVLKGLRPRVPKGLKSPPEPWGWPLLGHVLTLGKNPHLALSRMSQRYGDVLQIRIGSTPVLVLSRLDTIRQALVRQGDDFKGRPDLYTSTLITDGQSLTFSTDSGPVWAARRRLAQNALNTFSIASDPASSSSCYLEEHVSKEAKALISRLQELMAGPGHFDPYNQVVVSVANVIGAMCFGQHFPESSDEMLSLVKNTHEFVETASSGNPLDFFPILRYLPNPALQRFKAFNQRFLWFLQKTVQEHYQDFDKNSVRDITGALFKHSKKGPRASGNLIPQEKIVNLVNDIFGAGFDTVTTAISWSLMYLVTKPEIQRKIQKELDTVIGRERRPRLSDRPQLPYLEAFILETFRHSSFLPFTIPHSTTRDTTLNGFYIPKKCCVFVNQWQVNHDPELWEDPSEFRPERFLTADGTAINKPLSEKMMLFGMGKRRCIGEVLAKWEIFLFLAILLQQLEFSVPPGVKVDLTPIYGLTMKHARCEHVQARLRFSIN
# Only a part is listed here, and it is no random draw. Records with an inconclusive call do not appear. Calls of active or inactive are those of the source. Calls follow the shape of the dose curve; as a rule, active = well fitted curve in the direction sought with a large enough effect; inconclusive = small, poorly fitted or top-dose-only effect, or effect the other way; inactive = no such curve, though single readings can be large or run the other way.
# Target: Cytochrome P450 1A2 (Homo sapiens) (UniProt P05177)
# Assay: Cytochrome panel assay with activity outcomes
# Settings: recombinant CYP, pro-luciferin dealkylation, luminescence; p450-cyp1a2
row,SMILES,AC50
1,COc1cc(N[C@@H](C)CCCN)c2ncccc2c1,active: 200 nM
